The numbers were not newly measured in patent publication US10213418B2, “Therapeutic uses of berberine formulations” (TWi Biotechnology, Inc., priority 2013, dated 2019), which cites them from elsewhere.

The conditions of the data set: in vivo; cited from earlier work.

As to cetuximab: EGFR inhibitor, the papulopustular rash reported is 83 % of patients.
